Results: PMC9974930 (Journal of medicinal chemistry, 2023)

The chains behind the UniProt entries cited, without tags or fusion partners.
UniProt P34913, whole entry: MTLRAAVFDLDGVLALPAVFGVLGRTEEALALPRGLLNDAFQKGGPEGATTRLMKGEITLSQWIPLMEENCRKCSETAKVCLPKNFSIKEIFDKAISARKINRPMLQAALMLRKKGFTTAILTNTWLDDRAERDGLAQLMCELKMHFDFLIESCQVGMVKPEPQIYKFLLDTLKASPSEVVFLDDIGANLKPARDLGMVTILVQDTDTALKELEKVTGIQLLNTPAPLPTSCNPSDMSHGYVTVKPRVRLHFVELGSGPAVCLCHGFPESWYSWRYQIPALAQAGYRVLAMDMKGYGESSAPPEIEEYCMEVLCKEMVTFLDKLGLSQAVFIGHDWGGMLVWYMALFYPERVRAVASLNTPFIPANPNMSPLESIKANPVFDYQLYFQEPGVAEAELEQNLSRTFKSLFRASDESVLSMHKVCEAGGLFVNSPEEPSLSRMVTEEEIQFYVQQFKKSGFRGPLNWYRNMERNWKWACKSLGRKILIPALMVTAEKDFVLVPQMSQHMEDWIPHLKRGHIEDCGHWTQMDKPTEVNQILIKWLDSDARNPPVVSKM

Target: recombinant human sEH (HsEH) (Homo sapiens, UniProt P34913)
Format: biochemical
Conditions: LLE = pIC50-cLogP

Compound: CCC(C)C(=O)N1CCC(CC(=O)N2CCCN(C(=O)c3ccc(NC(=O)NC45CC6CC(C)(CC(C)(C6)C4)C5)c(F)c3)CC2)CC1 [H2, 1-((1r,3R,5S,7r)-3,5-Dimethyladamantan-1-yl)-3-(2-fluoro-4-(4-(2-(1-(2-methylbutanoyl)piperidin-4-yl)acetyl)-1,4-diazepane-1-carbonyl)phenyl)urea]
- LLE (ligand lipophilicity efficiency): 4.883
